# Yeast mating assay 1: variants of the scFv Ab-14

From the AlphaSeq antibody data of Engelhart et al. 2022 (doi:10.1038/s41597-022-01779-4), copy in the FLAb collection.

All variants were tested on one target, the spike HR2 peptide PDVDLGDISGINAS (SARS-CoV-2).

Ab-14 is the parent antibody, in scFv form: VH, then a 15-residue (Gly4Ser)3 linker, then VL. The light chain is unchanged in all variants.
VH: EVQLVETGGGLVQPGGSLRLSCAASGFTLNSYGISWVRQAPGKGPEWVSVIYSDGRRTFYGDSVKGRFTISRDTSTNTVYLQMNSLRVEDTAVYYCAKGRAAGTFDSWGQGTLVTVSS
VL: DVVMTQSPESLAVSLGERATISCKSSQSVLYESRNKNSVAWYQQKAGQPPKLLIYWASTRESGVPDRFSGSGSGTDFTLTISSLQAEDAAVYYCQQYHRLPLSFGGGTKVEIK

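The library (AAYL49) carries one to three amino acid substitutions per variant, with no insertions or deletions. The scFvs were displayed on barcoded MATa yeast, the peptide on MATalpha yeast. After mating in shaken culture at 30 °C for 16 h, diploids were selected and their barcode pairs sequenced. Each replicate has its own calibration line, from reference interactions of the BCL2 family. Each pool was mated in three replicate cultures.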

Variants are written as CDR1, CDR2 and CDR3 of the heavy chain (limits as in the source). Parent: GFTLNSYGIS, VIYSDGRRTFYGDSVK, GRAAGTFDS.
Values are log10 of the apparent Kd in nM; lower means stronger binding.
"n.d." means that the variant was in the library but no mating with the target was seen in that replicate; the authors take this as a sign of poor binding, and no number exists.

CDR-H1	CDR-H2	CDR-H3	log10 Kd (nM) by replicate	control signals
IFTLNGYGIS	VTYSDGRRTFYGDSVK	GRAAGTFDS	n.d. n.d. n.d.	1 of 9 (4.71)
GFTPNSYGIS	VIYSDGRRTFYGDSNK	CRAAGTFDS	n.d. 3.73 n.d.	0 of 9
GFTLNSYGHS	VIYSLGRRTFVGDSVK	GRAAGTFDS	n.d. n.d. n.d.	2 of 9 (3.98)
GFTLNSYGIS	VITSDGRRTFYGDSVK	GRAAGTEDS	3.72 n.d. n.d.	1 of 9 (4.26)
GFYLNSYVIS	VIYSDGRRTFYGDSVK	GRAAGTFDS	n.d. n.d. n.d.	0 of 9
GFTYNSYGCS	VIYSDGRRTDYGDSVK	GRAAGTFDS	n.d. n.d. n.d.	1 of 9 (3.76)
GFTLNSYGIS	VIYSDGPRTFYGDSVK	SRAAGTFPS	n.d. n.d. n.d.	0 of 9
GFTLNSYGIS	YIYSDGRRTFYGDSVK	GRAAGARDS	n.d. n.d. n.d.	2 of 9 (3.47)
GFTLNSYGIS	VVESDGRRTFYGDSVK	GRAAGTFCS	n.d. 3.67 n.d.	2 of 9 (4.58)
VFTLNSFGIS	VIYSDGRRTFYGDSRK	GRAAGTFDS	5.20 n.d. n.d.	1 of 9 (3.02)
GTTLNSYGIS	VIYSDGRRTFYGDSVK	GRAAGHMDS	n.d. n.d. n.d.	1 of 9 (4.34)
GFTLNSYGYS	LIYSDGRREFYGDSVK	GRAAGTFDS	5.77 n.d. n.d.	0 of 9
GFTLNSYGIS	VRYSDGRRTFYGDSVK	GYAAGWFDS	n.d. 4.66 n.d.	1 of 9 (4.15)
GFTLNSYGIS	VKYSDGRRTFYGDSVM	GRAAGTFVS	n.d. n.d. n.d.	2 of 9 (3.96)
GFTLNSYGIS	VIYSDGRRTFYGFHVK	GRAAGTQDS	n.d. n.d. 5.56	2 of 9 (2.86)
GFALNSYGIS	VNYSDGRRTFYGDSVK	GRAAITFDS	n.d. n.d. n.d.	1 of 9 (4.53)
GFTDNSYGIS	VIYSDGRRTFYGESVK	GRAPGTFDS	4.57 n.d. n.d.	2 of 9 (4.44)
GFTLNSHGIS	VIYSDGRRTFYGDSVK	GRSQGTFDS	3.53 4.17 n.d.	2 of 9 (3.50)
GFTLNSYGIS	VIYSDGRRTFYGDSVK	PRALGTFDS	1.27 1.40 1.62	3 of 9 (4.21)
GFTLNSYGIS	VIYLDGRRSFYGDSVK	GRAAGEFDS	3.47 4.19 n.d.	6 of 9 (4.28)
GPTLNSYGIS	VIYSDGRRTFYYDSVT	GRAAGTFDS	n.d. n.d. n.d.	0 of 9
GFTLNSYGSS	VIYSDGRRTFYGDSVK	GRAAGTFDS	n.d. n.d. n.d.	1 of 9 (2.68)
GFTLNSYEIS	VIYSDGRRTFYGDGVK	GRAAGVFDS	n.d. n.d. 3.89	4 of 9 (4.51)
GFTLNSTGIS	WIYSDGRRTFYGDSVK	GRDAGTFDS	n.d. n.d. n.d.	0 of 9
GFTLNSYGIS	VIYSMGTRTFYGDSVK	GRATGTFDS	3.12 n.d. n.d.	0 of 9
GFTLNSYGIS	LIYSDGRRTFYGDSVK	GRDANTFDS	n.d. n.d. n.d.	0 of 9
GPTLNSYGIS	VIYSDGQRAFYGDSVK	GRAAGTFDS	2.41 2.36 2.86	2 of 9 (4.76)
SFTLNSYGIS	VIYSDTRRTFYTDSVK	GRAAGTFDS	n.d. n.d. n.d.	0 of 9
GFTLNSYGIS	NILSRGRRTFYGDSVK	GRAAGTFDS	n.d. n.d. n.d.	1 of 9 (3.04)
GFTLNSYGIS	VIYSDGRRCFYGDSVK	GRAAGTFDF	n.d. n.d. n.d.	0 of 9
GFTLNSYFIS	VIYSDGRRTFYHDSVK	GRAAGTFDS	n.d. n.d. n.d.	0 of 9
GFTLPSYFIS	VSYSDGRRTFYGDSVK	GRAAGTFDS	n.d. n.d. n.d.	0 of 9
GFYLNSYGIS	VIYSDGRRTFYGISVK	GRAYGTFDS	3.99 n.d. n.d.	7 of 9 (4.66)
GFTLNSYGQS	VIYSDGRRTFTGMSVK	GRAAGTFDS	n.d. 3.27 n.d.	2 of 9 (3.32)
GFTLNSYGIN	VIYSDGRRTFYGDSLK	RRAAGTFDS	n.d. n.d. n.d.	2 of 9 (4.00)
GFTLNSGGIS	VIYSDDRRTFEGDSVK	GRAAGTFDS	n.d. n.d. 4.81	1 of 9 (3.61)
GFTLNSYQIS	VVYSDGRRTFYGDSVK	GRAAGTFDE	n.d. 5.12 n.d.	2 of 9 (5.00)
GFTLNSYGIS	VIYSVGRRTFYGDSVK	GRYAGTCDS	n.d. n.d. n.d.	0 of 9
GFTLNSYGIS	LMYSDGRRTFYGDSWK	GRAAGTFDS	5.46 n.d. n.d.	3 of 9 (4.10)
GFTLTSYGIS	VIYSDGRRTFYSDSVK	GRAAVTFDS	0.67 0.84 0.89	0 of 9
GMTLNSYGIS	DIYSDGRRTFYGDSVG	GRAAGTFDS	n.d. n.d. n.d.	1 of 9 (3.85)
GYTLNSYGIS	VIYSDGYRTFYGDSVA	GRAAGTFDS	n.d. 4.05 n.d.	1 of 9 (4.24)
GFTLNSYGIS	VIFSDGRRTFYGDSVC	GRAAGTFDS	n.d. n.d. 2.86	3 of 9 (4.07)
GFGLNSYGGS	VIYSDVRRTFYGDSVK	GRAAGTFDS	n.d. n.d. n.d.	1 of 9 (2.58)
CFTLNSYGIF	VIYSDGRRTFYGDIVK	GRAAGTFDS	n.d. n.d. n.d.	0 of 9
GFTLNSYGIS	VGYSDGRRTFYDDSVK	GRAAGPFDS	n.d. 4.27 6.25	3 of 9 (4.14)
GFTLNSYGIS	FIYSDGRRTCYGDSVK	GRAAGTADS	n.d. n.d. n.d.	0 of 9

Excerpt, the final 5 entries:

CDR-H1	CDR-H2	CDR-H3	log10 Kd (nM) by replicate	control signals
GFTLNSYGIS	VIFSDGRRTFYGDSVC	GRAAGTFDS	n.d. n.d. 2.86	3 of 9 (4.07)
GFGLNSYGGS	VIYSDVRRTFYGDSVK	GRAAGTFDS	n.d. n.d. n.d.	1 of 9 (2.58)
CFTLNSYGIF	VIYSDGRRTFYGDIVK	GRAAGTFDS	n.d. n.d. n.d.	0 of 9
GFTLNSYGIS	VGYSDGRRTFYDDSVK	GRAAGPFDS	n.d. 4.27 6.25	3 of 9 (4.14)
GFTLNSYGIS	FIYSDGRRTCYGDSVK	GRAAGTADS	n.d. n.d. n.d.	0 of 9

As a blank, each scFv also met three strains without target: over library AAYL49, 15% of these pairings were detected, typically at 4.06 and seldom below 2.83. For each scFv, signals with the empty controls are counted beside the result, with their mean in brackets.
For reference, the parent read 0.65 as the reference entry and 4.11 (one replicate of three) as a member of this library.